Assay: rat acute oral toxicity
Settings: in vivo

Structure (SMILES) | LD50 [mg/kg]
CC12CCC(CC1)C(C)(C)O2 | 2480
CCCCCCO | 3210

Source: the CATMoS acute toxicity set (Mansouri et al. 2021)
